B1: CSN2 (subunit 2 of the human COP9 signalosome) (other, UniProt P61201 1-443, looked up)
chain: MSDMEDDFMCDDEEDYDLEYSEDSNSEPNVDLENQYYNSKALKEDDPKAALSSFQKVLELEGEKGEWGFKALKQMIKINFKLTNFPEMMNRYKQLLTYIRSAVTRNYSEKSINSILDYISTSKQMDLLQEFYETTLEALKDAKNDRLWFKTNTKLGKLYLEREEYGKLQKILRQLHQSCQTDDGEDDLKKGTQLLEIYALEIQMYTAQKNNKKLKALYEQSLHIKSAIPHPLIMGVIRECGGKMHLREGEFEKAHTDFFEAFKNYDESGSPRRTTCLKYLVLANMLMKSGINPFDSQEAKPYKNDPEILAMTNLVSAYQNNDITEFEKILKTNHSNIMDDPFIREHIEELLRNIRTQVLIKLIKPYTRIHIPFISKELNIDVADVESLLVQCILDNTIHGRIDQVNQLLELDHQKRGGARYTALDKWTNQLNSLNQAVVSKLA
notes: Studied as a subunit within the reconstituted CSN or CSNn complex
B2: CSN3 (subunit 3 of the human COP9 signalosome) (other, UniProt Q9UNS2 1-423, looked up)
chain: MASALEQFVNSVRQLSAQGQMTQLCELINKSGELLAKNLSHLDTVLGALDVQEHSLGVLAVLFVKFSMPSVPDFETLFSQVQLFISTCNGEHIRYATDTFAGLCHQLTNALVERKQPLRGIGILKQAIDKMQMNTNQLTSIHADLCQLCLLAKCFKPALPYLDVDMMDICKENGAYDAKHFLCYYYYGGMIYTGLKNFERALYFYEQAITTPAMAVSHIMLESYKKYILVSLILLGKVQQLPKYTSQIVGRFIKPLSNAYHELAQVYSTNNPSELRNLVNKHSETFTRDNNMGLVKQCLSSLYKKNIQRLTKTFLTLSLQDMASRVQLSGPQEAEKYVLHMIEDGEIFASINQKDGMVSFHDNPEKYNNPAMLHNIDQEMLKCIELDERLKAMDQEITVNPQFVQKSMGSQEDDSGNKPSSYS
notes: as for B1

Key:
[1] = molecular target: B2; test: PRM targeted quantitation of the DHSO cross-linked peptide, CSN against CSNn (with CSN9)
[2] = molecular target: B1; test: integrative structures of CSN and CSNn from cross-links

| relative abundance ratio (CSN/CSNn) of the inter-subunit cross-link [1] | binding result [2] | Binder |
| --- | --- | --- |
| 30.1 ratio (CSN/CSNn) |  | B1 |
|  | binds | B2 |

Source: patent publication US11603352 (University of California, dated 2023)
